# Assays:
# Sequences of proteins named here, by UniProt entry; tags and fusion partners are left off. A change or cut given only in a name is not applied to a line headed by its entry.
# UniProt P41145: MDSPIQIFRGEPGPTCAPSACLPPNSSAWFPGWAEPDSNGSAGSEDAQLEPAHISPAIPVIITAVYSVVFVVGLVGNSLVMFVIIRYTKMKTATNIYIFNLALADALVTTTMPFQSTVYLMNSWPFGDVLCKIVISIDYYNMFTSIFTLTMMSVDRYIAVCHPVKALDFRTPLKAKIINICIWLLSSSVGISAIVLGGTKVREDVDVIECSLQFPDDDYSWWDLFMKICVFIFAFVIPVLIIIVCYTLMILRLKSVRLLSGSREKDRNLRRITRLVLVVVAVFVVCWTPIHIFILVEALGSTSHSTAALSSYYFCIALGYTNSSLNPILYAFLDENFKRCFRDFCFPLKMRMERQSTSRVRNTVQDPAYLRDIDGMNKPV
# UniProt P35372, whole entry: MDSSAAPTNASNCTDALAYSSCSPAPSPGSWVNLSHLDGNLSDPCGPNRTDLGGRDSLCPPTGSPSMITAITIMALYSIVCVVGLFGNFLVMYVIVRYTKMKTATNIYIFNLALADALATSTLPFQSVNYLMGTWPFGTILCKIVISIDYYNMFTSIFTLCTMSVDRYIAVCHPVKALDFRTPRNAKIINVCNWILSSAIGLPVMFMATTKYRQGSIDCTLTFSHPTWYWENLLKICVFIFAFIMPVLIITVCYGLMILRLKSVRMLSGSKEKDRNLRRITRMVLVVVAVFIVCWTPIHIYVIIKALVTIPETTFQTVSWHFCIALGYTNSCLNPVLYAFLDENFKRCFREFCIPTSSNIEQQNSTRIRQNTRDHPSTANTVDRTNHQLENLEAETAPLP
# κ opioid receptor [1] = target: T1, κ opioid receptor (Homo sapiens, UniProt P41145); conditions: ratio of Ke values; for δ/κ: selectivity for κ relative to δ; for μ/κ: selectivity for κ relative to μ
# μ opioid receptor [2] = target: T2, μ opioid receptor (Homo sapiens, UniProt P35372); experiment: biochemical
# δ opioid receptor = δ opioid receptor (Homo sapiens, UniProt P41143); experiment: biochemical
# κ opioid receptor [3] = target: T1, κ opioid receptor; experiment: biochemical
# μ opioid receptor [4] = target: T2, μ opioid receptor; conditions: cloned human μ receptor; mean (SE), at least three independent experiments
SMILES,δ/κ (κ opioid receptor [1]),μ/κ (κ opioid receptor [1]),Kb (μ opioid receptor [2]) [nM],Kb (δ opioid receptor) [nM],Kb (κ opioid receptor [3]) [nM],"Ke μ, DAMGO (μ opioid receptor [4]) [nM]"
"CC(C)[C@@H](CN1CC[C@@](C)(c2ccccc2)[C@@H](C)C1)NC(=O)[C@H]1Cc2ccc(O)cc2CN1 [Compound 4, (3R)-N-[(1S)-1-{[(3R,4R)-3,4-Dimethyl-4-phenylpiperidin-1-yl]methyl}-2-methylpropyl]-7-hydroxy-1,2,3,4-tetrahydroisoquinoline-3-carboxamide]",18400,370,8.9 ± 3,442 ± 130,0.024 ± 0.01,
"CC(C)[C@@H](CN1CC[C@@](C)(c2cccc(F)c2)[C@@H](C)C1)NC(=O)[C@H]1Cc2ccc(O)cc2CN1 [Compound 5, (3R)-N-[(1S)-1-{[(3R,4R)-4-(3-Fluorophenyl)-3,4-dimethylpiperidin-1-yl]methyl}-2-methylpropyl]-7-hydroxy-1,2,3,4-tetrahydroisoquinoline-3-carboxamide]",24900,1480,14.8 ± 5,249 ± 44,0.01 ± 0.004,
"CC(C)[C@@H](CN1CC[C@@](C)(c2cccc(O)c2)[C@@H](C)C1)NC(=O)[C@H]1Cc2ccc(O)cc2CN1 [JDTic, (3R)-1,2,3,4-tetrahydro-7-hydroxy-N-[(1S)-1-[[(3R,4R)-4-(3-hydroxyphenyl)-3,4-dimethyl-1-piperidinyl]methyl]-2-methylpropyl]-3-isoquinolinecarboxamide, reference compound]",,,,,,25

# Reference: publication PMC4161151 (Journal of Medicinal Chemistry, 2014)
